Patent publication US20200246297A1, “LIQUID PHARMACEUTICAL FORMULATIONS OF TETRAIODOTHYRONINE” (priority 2015, published 2020)

How the values were obtained:
[1] = 25° C.; cited from earlier work
[2] = Quantity of T4 microaggregates formed in water: HPLC T4 concentration before and after 0.2 μm microfiltration; assay type: physicochemical; conditions: T4 in glycerin, ethanol or glycerin/ethanol 80/20 w/w, diluted 100 times in water pH 6.5; T0
Protocol: To establish the formation of microaggregates of T4 in an aqueous medium a fine T4 powder is dissolved in 10 mL of water (HPW), pH 6.5, at the concentration of 150 μg/mL, and the mixture is left under stirring for 5 h in an inert atmosphere. […] 50 mL of each sample taken is microfiltered through a Millipore GSWP02500 membrane with a porosity of 0.2 μm. The concentration of T4 in the samples is then determined before and after microfiltration by HPLC (Beckman Coulter; Supelco Discovery Cyano column 100×2.1 mm, 5 μm, flow rate 0.2 mL/min; Å 225 nm; isocratic elution H2O/acetonitrile (80/20 w/w)+0.1% formic acid; inj. vol. 20 μL; temperature 35° C.; column pressure 130-170 Kg/cm^2; run time 25 min).
To establish whether the formation of T4 in an aqueous medium can be affected by pre-solubilisation in organic solvents compatible with pharmaceutical use, a fine T4 powder is dissolved in 10 mL of pharmaceutical grade PEG 200 or PEG 300 or PEG 400 or PEG 600 (polyethylene glycols which are liquid at room temperature, with an average degree of polymerisation of 4, 6, 8 and 12 monomer units respectively) at the concentration of 150 μg/mL, and left under stirring, under nitrogen, until the solution is completely clear. […] The concentration of T4 in the samples is then determined before and after microfiltration by HPLC, as reported in example 1. […]

With “(2S)-2-amino-3-[4-(4-hydroxy-3,5-diiodo-oxyphenyloxy)-3,5-diiodophenyl]propanoic acid [T4]” as the substance, how does the “solubility of T4 (water)” value [1] read?
The value was 0.105 µg/mL.

And the “insoluble, non-bioavailable microaggregates formed” value [2]?
The value was 5-10 % of the dose.
